The results in this text go back to the supplement of paper PMC9103864.

Molecules are shown by their SMILES.

The test system of assay [1] is BMSC (primary human bone marrow mesenchymal stromal cells). Put plainly: absolute EC50 for viability; higher = less sensitive.
For assay [2] the test system is unchanged. Briefly: drug sensitivity score (DSS); higher = more sensitive.

Regarding `NCc1ccc(OCCCc2sc(-c3ccc4c(c3)/C(=N/Nc3nc5ccccc5s3)CCC4)nc2C(=O)O)cc1` [WEHI-539], in assay [1], the “absolute EC50 for viability” value is more than 2500 nM. This compound also registered a drug sensitivity score in assay [2] of 0.
